Reference: patent publication US6811998B2, “Conjugates of uncompetitive inhibitors of inosine monophosphate dehydrogenase” (priority 1999, dated 2004)

How the values were obtained:
[1] = biological target: T1, IMPDH II (Homo sapiens, UniProt P12268); assay: Inhibition constants of ligand inhibitors: NADH formation at 340 nm, 10 minutes, 40° C.; type: biochemical; details: IMPDH II 0.00065 U/ml, non-linear curve fit
[2] = biological target: T1, IMPDH II; assay: IMPDH activity as a function of ligand-inhibitor conjugate, antibody and analyte concentration (HITACHI 717, NADH at 340 nm)

COc1c(C)c2c(c(O)c1C/C=C(\C)CC(C/C(C)=C/Cc1c(O)c3c(c(C)c1OC)COC3=O)C(=O)O)C(=O)OC2 (stereo not shown)
IC50 [1]: 32 nM | ΔA × 10^−4 @ 340 nm ([2]; set B: MPA—MPA in enzyme reagent, no anti-MPA, sample MPA 0 μg/ml): 1666 × 10^−4 | ΔA × 10^−4 @ 340 nm ([2]; set B: MPA—MPA in enzyme reagent, no anti-MPA, sample MPA 5 μg/ml): 557 × 10^−4 | ΔA × 10^−4 @ 340 nm ([2]; set B: MPA—MPA in enzyme reagent, no anti-MPA, sample MPA 10 μg/ml): 214 × 10^−4 | ΔA × 10^−4 @ 340 nm ([2]; set C: MPA—MPA, anti-MPA 1:100, sample MPA 0 μg/ml): 3109 × 10^−4 | ΔA × 10^−4 @ 340 nm ([2]; set C: MPA—MPA, anti-MPA 1:100, sample MPA 5 μg/ml): 2671 × 10^−4 | ΔA × 10^−4 @ 340 nm ([2]; set C: MPA—MPA, anti-MPA 1:100, sample MPA 10 μg/ml): 2135 × 10^−4 | ΔA × 10^−4 @ 340 nm ([2]; set D: MPA—MPA, anti-MPA 1:1000, sample MPA 0 μg/ml): 1957 × 10^−4 | ΔA × 10^−4 @ 340 nm ([2]; set D: MPA—MPA, anti-MPA 1:1000, sample MPA 5 μg/ml): 804 × 10^−4 | ΔA × 10^−4 @ 340 nm ([2]; set D: MPA—MPA, anti-MPA 1:1000, sample MPA 10 μg/ml): 304 × 10^−4
